One molecule from publication PMC3578425 (Pharmacological research : the official journal of the …, 2010) can be followed below.

Amino acid sequences for entries named in this document (tags omitted). A change or cut given only in a name is not applied to a line headed by its entry.
UniProt P47900: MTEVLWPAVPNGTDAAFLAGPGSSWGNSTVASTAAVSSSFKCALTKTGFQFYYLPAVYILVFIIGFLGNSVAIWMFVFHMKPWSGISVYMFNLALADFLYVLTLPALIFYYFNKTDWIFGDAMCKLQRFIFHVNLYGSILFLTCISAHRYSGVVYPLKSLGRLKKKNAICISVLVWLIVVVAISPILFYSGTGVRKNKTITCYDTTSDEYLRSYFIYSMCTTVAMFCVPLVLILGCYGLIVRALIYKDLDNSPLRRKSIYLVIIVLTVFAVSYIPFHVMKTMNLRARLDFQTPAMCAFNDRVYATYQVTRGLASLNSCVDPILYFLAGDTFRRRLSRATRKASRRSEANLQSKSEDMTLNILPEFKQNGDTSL

Experiment [1] addresses human P2Y1 receptor (Homo sapiens, UniProt P47900). The experiment is classed as binding.
Experiment [2] has as its target P2Y1 receptors on human platelets (Homo sapiens, UniProt P47900). The experiment can be described thus: [125I]MRS2500 binding assay with intact washed human platelets.

A word on the Ki: it is the equilibrium dissociation constant of an inhibitor or competing ligand from its target. The low end stands for a stronger hold on the target, the high end for a looser hold on the target. `CSc1nc(N)c2ncn([C@@H]3O[C@H](COP(=O)(O)OP(=O)(O)O)[C@@H](O)[C@H]3O)c2n1` [2MeSADP, 2-methylthio-adenosine 5′-diphosphate, reference compound]: the Ki came to 0.07 ± 0.03 µM in experiment [1] and 0.0465 ± 0.0017 µM in experiment [2].
